Measured values published in US20130084640A1, “ANIMAL CELL CULTURE MEDIA COMPRISING NON ANIMAL OR PLANT DERIVED NUTRIENTS” (LIFE TECHNOLOGIES CORPORATION, priority 1999, published 2013).

System: VERO cells
Experiment: VERO cell growth in basal medium with non-animal supplements (mean cell count over subcultures, RGE)
Format: cell-based
Settings: Table 2
Description: No attachment factors or coating of the plastic surface are required for the culture of VERO cells. At 3 to 4 days the cells were removed using standard cell culture techniques. The surface of the culture was first washed with Dulbecco's Phosphate Buffered Saline (DPBS) and then 1.0 ml Trypsin-EDTA (Life Technologies, Inc., Rockville, Md.) was added. The digest was allowed to sit on the cell surface for 3 to 5 minutes or until the cells rounded up and began to detach from the surface of the flask. The cells were completely detached by vigorous agitation against the palm of the hand and then 1.5 ml of soybean trypsin inhibitor was added to quickly neutralize enzymatic activity. The cells were counted under the microscope using trypan blue straining solution and new cultures plated at 2.5×10^3 cells per 25 cm^2 flask. Incubation was at 37° C. in 5% CO^2 in air. The cultures were passaged for a total of 4 subcultures and the mean cells per subculture determined from the counts of the final 3 subcultures (P2+P3+P4[…]). Initial studies were designed to formulate a culture medium completely devoid of animal proteins that supports the culture of animal cells. […] RGE was calculated as described in Example 2. […] RGE was calculated as described in Example 2. […] RGE was calculated as described in Example 2.

Substance: HSA: human serum albumin, positive control supplement at 500 mg/liter [reference compound]
- RGE (relative growth efficiency) (500 mg/liter HSA, the reference control itself): 100
- Mean Cell Count (basal medium + 500 mg/liter HSA (positive control), per 25 cm^2 flask, mean over 3 subcultures): 44.9 × 10^5
